According to publication PMC9122598, “NASP maintains histone H3–H4 homeostasis through two distinct H3 binding modes” (Nucleic Acids Research, 2022):

Target: sNASPc-GGGSGGGS-ASF1b HBD (human) (UniProt P49321)
Experiment: SEC-MALS; co-expressed and co-purified covalent sNASPc-8G-ASF1b–H3–H4 heterotetramer, 20 mM Tris pH 7.5, 0.5 M NaCl

Row | stoichiometry N | Substance
1 | 1 | histone H3.3 (in the sNASPc-8G-ASF1b–H3–H4 heterotetramer) (from UniProt P84243 2-136) (natural protein)
2 | 1 | histone H4 (in the sNASPc-8G-ASF1b–H3–H4 heterotetramer) (from UniProt P62805 2-103) (natural protein)
